In patent US12201629B2 (priority 2017, dated 2025):

Assay: Example 2: pharmacokinetics of oral and intravenous buprenorphine hydrochloride under naltrexone blockade
[1] = oral, equimolar to 5 mg buprenorphine base, n = 8

Substance: Buprenorphine HCl [Buprenorphine HCl IR oral]
- period with analgesic blood levels on the level of Butrans 20 mcg/h (oral IR, equimolar to 5 mg buprenorphine base, FIG. 3): at least 12 hours
- Absolute Bioavailability (F %) (oral solution 5 mg vs 0.3 mg IV, Mean ± SD, AUCt oral/AUCt IV × Dose IV/Dose oral): 5.18 ± 2.47%
- Buprenorphine Mean Cmax [1]: 0.628 ng/mL
- Buprenorphine Mean Tmax [1]: 2.500 h
